Data published in paper PMC5997364, “OG716: Designing a fit-for-purpose lantibiotic for the treatment of Clostridium difficile infections” (PLoS ONE, 2018).

Details: 1.0 mg/mL in water
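Further: purity and concentration determined by HPLC on aqueous solutions kept in a stability chamber, with samples analyzed at day 0 and after incubation.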

| Compound | Forced degradation Δ Conc (2 Days at +50°C) [%] | Forced degradation Δ Purity (7 Days at +50°C) [%] |
| --- | --- | --- |
| C=C1NC(=O)[C@H](Cc2c[nH]c3ccccc23)NC(=O)[C@H](NC(=O)[C@H](CCCCN)NC(=O)[C@@H](N)CC(C)C)CSC[C@@H](C(=O)N[C@H]2C(=O)N3CCC[C@H]3C(=O)NCC(=O)N[C@H](C(=O)N[C@@H](C)C(=O)N[C@@H](CC(=O)O)C(=O)N/C(=C\C)C(=O)NCC(=O)N[C@@H]3CSC[C@@H]4NC(=O)[C@H](Cc5ccc(O)cc5)NC(=O)[C@@H](CS/C=C\NC4=O)NC(=O)[C@H](CC(N)=O)NC(=O)[C@H](Cc4ccccc4)NC3=O)CS[C@H]2C)NC(=O)[C@H](CC(C)C)NC1=O [OG705] | -11.2 | – |
| C=C1NC(=O)[C@H](Cc2c[nH]c3ccccc23)NC(=O)[C@H](NC(=O)[C@H](CCCCN)NC(=O)[C@@H](N)CC(C)C)CSC[C@@H](C(=O)N[C@H]2C(=O)N3CCC[C@H]3C(=O)NCC(=O)N[C@H](C(=O)N[C@@H](C)C(=O)N[C@@H](CC(N)=O)C(=O)N/C(=C\C)C(=O)NCC(=O)N[C@@H]3CSC[C@@H]4NC(=O)[C@H](Cc5ccc(O)cc5)NC(=O)[C@@H](CS/C=C\NC4=O)NC(=O)[C@H](CC(N)=O)NC(=O)[C@H](Cc4ccccc4)NC3=O)CS[C@H]2C)NC(=O)[C@H](CC(C)C)NC1=O [OG712] | – | -18.06 |
